## Permeability data for macrocyclic peptides

Data: CycPeptMPDB; original report Townsend et al. 2020, doi:10.26434/chemrxiv.13335941.v1.

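Lipid, pH, incubation time, direction and concentration are not recorded in the data file. The list need not hold all peptides of the study. Peptides that the database sets to -10, its floor, are left out.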

PAMPA measures passive passage through an artificial lipid membrane. Permeability is in 10^-6 cm/s, converted from the database's log10 values; higher is more permeable.

structure (SMILES),PAMPA (10^-6 cm/s)
CC(C)C[C@@H]1C(=O)N(C)[C@H](CC(C)C)C(=O)N2CCC[C@H]2C(=O)N[C@H](CC(C)C)C(=O)N[C@@H](Cc2ccccc2)C(=O)N[C@@H](C)C(=O)N1C,3.1
CCCN1CC(=O)N[C@@H](CC(C)C)C(=O)N(C)[C@@H](CC(C)C)C(=O)N2CCC[C@@H]2C(=O)N(Cc2ccccc2)CC(=O)N[C@@H](Cc2ccccc2)C(=O)N2CCC[C@H]2C1=O,3.2
CC(C)C[C@@H]1NC(=O)[C@@H](C)NC(=O)[C@H](Cc2ccccc2)NC(=O)[C@@H](CC(C)C)NC(=O)[C@@H]2CCCN2C(=O)C[C@H](Cc2ccccc2)NC1=O,0.14
CCCN1CC(=O)N(C)[C@H](CC(C)C)C(=O)N[C@@H](CC(C)C)C(=O)N2CCC[C@H]2C(=O)N[C@H](CC(C)C)C(=O)N[C@@H](Cc2ccccc2)C1=O,12
CCCN1CC(=O)N[C@@H](CC(C)C)C(=O)N[C@@H](CC(C)C)C(=O)N2CCC[C@H]2C(=O)N(C)[C@@H](CC(C)C)C(=O)N[C@@H](Cc2ccccc2)C1=O,9.3
CC(C)C[C@@H]1C(=O)N(C)[C@@H](CC(C)C)C(=O)N2CCC[C@H]2C(=O)N[C@H](CC(C)C)C(=O)N[C@@H](Cc2ccccc2)C(=O)N2CCC[C@@H]2C(=O)N(C)[C@H](C)C(=O)N1C,0.32
CC(C)C[C@@H]1NC(=O)[C@H]2CCCN2C(=O)[C@@H](CC(C)C)NC(=O)[C@@H](CC(C)C)NC(=O)[C@H](C)N(C)C(=O)[C@H](Cc2ccccc2)NC1=O,0.78
CC(C)C[C@@H]1C(=O)N2CCC[C@@H]2C(=O)N[C@H](CC(C)C)C(=O)N[C@@H](Cc2ccccc2)C(=O)N2CCC[C@H]2C(=O)N(C)[C@H](C)C(=O)N(C)[C@@H](CC(C)C)C(=O)N1C,6.2
CC(C)C[C@@H]1NC(=O)[C@H](C)N(C)C(=O)[C@H]2CCCN2C(=O)[C@H](Cc2ccccc2)NC(=O)[C@H](CC(C)C)N(C)C(=O)[C@H]2CCCN2C(=O)CN(Cc2ccccc2)C1=O,1.3
CC(C)C[C@@H]1NC(=O)[C@H](C)NC(=O)[C@H]2CCCN2C(=O)[C@H](Cc2ccccc2)NC(=O)[C@@H](CC(C)C)N(C)C(=O)[C@H]2CCCN2C(=O)[C@@H](CC(C)C)N(C)C1=O,1
CC(C)C[C@H]1NC(=O)[C@H](CC(C)C)N(C)C(=O)[C@H](C)N(C)C(=O)[C@H](Cc2ccccc2)NC(=O)CN(Cc2ccccc2)C(=O)[C@H]2CCCN2C1=O,2
CC(C)C[C@@H]1NC(=O)[C@@H](CC(C)C)NC(=O)[C@@H](C)N(C)C(=O)[C@H](Cc2ccccc2)NC(=O)[C@@H](CC(C)C)N(C)C(=O)[C@H]2CCCN2C1=O,6.6
CCCN1CC(=O)N[C@@H](CC(C)C)C(=O)N[C@H](CC(C)C)C(=O)N2CCC[C@H]2C(=O)N(C)[C@@H](CC(C)C)C(=O)N[C@@H](Cc2ccccc2)C(=O)N2CCC[C@@H]2C1=O,3.5
CC(C)C[C@@H]1C(=O)N[C@@H](Cc2ccccc2)C(=O)N2CCC[C@H]2C(=O)N(C)[C@@H](C)C(=O)N[C@H](CC(C)C)C(=O)N[C@H](CC(C)C)C(=O)N2CCC[C@@H]2C(=O)N1C,1.1
CC(C)C[C@@H]1NC(=O)[C@H](C)N(C)C(=O)[C@H](Cc2ccccc2)NC(=O)[C@@H](CC(C)C)N(C)C(=O)[C@H]2CCCN2C(=O)CN(Cc2ccccc2)C1=O,2.1
CC(C)C[C@H]1NC(=O)[C@H](C)NC(=O)[C@@H]2CCCN2C(=O)[C@H](Cc2ccccc2)NC(=O)[C@H](CC(C)C)N(C)C(=O)[C@@H]2CCCN2C(=O)CN(Cc2ccccc2)C1=O,3

The first 2 entries again:

structure (SMILES),PAMPA (10^-6 cm/s)
CC(C)C[C@@H]1C(=O)N(C)[C@H](CC(C)C)C(=O)N2CCC[C@H]2C(=O)N[C@H](CC(C)C)C(=O)N[C@@H](Cc2ccccc2)C(=O)N[C@@H](C)C(=O)N1C,3.1
CCCN1CC(=O)N[C@@H](CC(C)C)C(=O)N(C)[C@@H](CC(C)C)C(=O)N2CCC[C@@H]2C(=O)N(Cc2ccccc2)CC(=O)N[C@@H](Cc2ccccc2)C(=O)N2CCC[C@H]2C1=O,3.2